Series [1] can be described thus: Tolerability: physical appearance, body weight, haematology and blood chemistry pre-dose and 24 h post-dose. On the procedure:
(§1) One or two capsules containing the test substance were orally administered at 8:00 AM to the dogs following the experimental plan. […] The blood samples were centrifuged at 5000g for 10 min at 4 °C to collect plasma and then stored at − 80 °C until analysis. […] The volume of urine and weight of faeces were recorded and all samples were stored at − 80 °C until analysis. All dogs were reused with a washed out period of two weeks, to allow complete excretion of bioactive triterpenoids.
To evaluate significant differences between the pre- and post-dose of the test substances to the health status of dogs, the biochemical data were compared by using Student’s t-test. PK solution software version 2.0 (Summit Research Services) was used to analyse pharmacokinetic parameters by non-compartmental analysis. Cmax and Tmax were directly determined from plasma concentration–time curves. AUC0-24 was calculated using the trapezoidal rule and extrapolated to time infinity by the equation AUC0-inf = AUC0–24 + (Clast/kel), where Clast is the last observed plasma concentration after dosing and kel is the elimination rate constant. MRT was calculated as AUMC0-inf/AUC0-inf, where AUMC0-inf is the area under the first moment concentration–time curve. Vd was equal to dose/C0, where C0 is the plasma concentration at time zero and CL was calculated as dose/AUC0-inf. […] Absolute bioavailability was calculated as (AUCp.o./DOSEp.o.)/(AUCi.v./DOSEi.v.) × 100. Relative bioavailability was calculated from (AUCCTS/DOSECTS)/(AUCECa/DOSEECa) × 100. Before performing the statistical analysis in SPSS version 22.0 (IBM Corp.), the Shapiro–Wilk test was used to determine whether the data were normally distributed. A paired Student’s t test or Wilcoxon signed-rank test was used to determine significant differences of pharmacokinetic parameters between the groups. The percent recovery of triterpenoid glycosides and triterpenic acids were calculated using the total amount of the test substance found in urine or faeces divided by the given dose. All data are expressed as the mean ± standard deviation except for Tmax and half-life, which were expressed as median (IQR). Differences were considered significant at p < 0.05.

The nature of series [2]: Percent recovery of triterpenoids in urine and faeces. As for the experimental part:
as §1
(§2) All biological samples (plasma, urine, and faeces) were subjected to protein precipitation to extract the major triterpenoids from the samples. Two hundred microliters of methanol with two internal standards (glycyrrhizin and glycyrrhetinic acid) was added to 50 µL of the biological sample and mixed for 10 min. Then, the sample was centrifuged at 12,000g for 10 min at 4 °C, and 10 µL of supernatant was injected into the LC–MS/MS system. Faeces samples were homogenised by adding methanol, then the mixture was centrifuged at 1500g for 10 min at 4 °C to collect the supernatant. In the case of the concentration of the biological sample exceeded the linear calibration curve; blank matrices were used to dilute before protein precipitation. For method validation, all major components in the biological sample of dog were determined and validated according to the previous reports with little modification.
The LC–MS/MS system was set up according to a previous published method. In brief, an LCMS-8060 coupled with a triple quadrupole mass spectrometer was controlled by LabSolution software version 5.86 (Shimadzu Corp.). A Synergi Fusion-RP C18 column (Phenomenex Inc.) maintained at 40 °C was used as the stationary phase. The analysis was run using absolute methanol and 0.2% formic acid in water as the mobile phase.

A short description of series [3]: Pharmacokinetic study, intravenous administration, plasma LC-MS/MS.
Text: Eight healthy 8-month-old male beagles were obtained from the Chulalongkorn University Laboratory Animal Centre (CULAC), Chulalongkorn University. […] Food was provided twice a day, and water was available ad libitum. […] The animal experiments were approved by the Institutional Animal Care and Use Committee of the CULAC, Chulalongkorn University, Bangkok, Thailand (Protocol number 2073002, Approval date: February 21, 2020). All animal procedures were complied with the ethical principles and guidelines for the use of animals (National Research Council of Thailand, 2015). All animal experiments followed the ARRIVE reporting guidelines for documenting animal experiments.
as §1, §2

The mark [4] stands for this setting: Post-treatment, ASS 0.41 mg/kg i.v.

We go through one substance from paper PMC8861063, “Increase water solubility of Centellaasiatica extract by indigenous bioenhancers could improve oral bioavailability and disposition kinetics of triterpenoid glycosides in beagle dogs” (Scientific Reports, 2022).

With asiaticoside, in series [1] (24 h post-dose, all groups), the “measured biochemical parameters (haematology, kidney, liver functions), pre-dose versus post-dose” value is on record as “no significant differences”. For the same substance, in series [1] (setting [4]), the ALT stood at 53 ± 4 U/L, the AST is 30 ± 10 U/L, the Blood urea nitrogen amounted to 11.4 ± 2.1 mg/dL and the Body weight was 11.87 ± 1.49. Besides, in series [1] (setting [4]), the Creatinine stood at 0.5 ± 0.1 mg/dL, the Hemoglobin is reported as 12.1 ± 1.7 g/dL, the Physical appearance entry is recorded as “Normal” and the Platelet is listed as 233 ± 109 x 103/µL. Moreover, in series [1] (setting [4]), the Red blood cell is 5.23 ± 0.88 x 106/µL and the White blood cell was 10.17 ± 3.01 x 103/µL. Besides, in series [2] (ASS 0.41 mg/kg i.v., 0-24 h), the “Percent recovery of asiaticoside in feces” value came to 24.07 ± 7.71% and the “Percent recovery of asiaticoside in urine” value came to 30.27 ± 14.87%. Further, in series [2] (ASS 0.41 mg/kg i.v., 24-48 h), the “Percent recovery of asiaticoside in feces” value is on record as 6.76 ± 5.95%. For the same substance, in series [2] (intravenous administration), the “excretion route of parent triterpenoid glycosides” value was “excreted via urine within 24 h”. In series [3] (0.41 mg/kg asiaticoside i.v.), the “maximum plasma concentration of asiaticoside (Fig. 2b)” value is listed as “approximately 3000 µg/L”. In addition, the “plasma concentration of asiaticoside 8 h after dosing” value in series [3] (0.41 mg/kg asiaticoside i.v., 8 h) was determined as 10 ng/mL. In series [3] (ASS 0.41 mg/kg i.v., mean ± SD), the AUC0-24 of asiaticoside was 3207 ± 829 ng·h/mL, the AUC0-inf of asiaticoside was found to be 3218 ± 835 ng·h/mL, the CL of asiaticoside was 2.33 ± 0.67 mL/min/kg and the Cmax of asiaticoside came out at 3630 ± 1322 ng/mL. Besides, in series [3] (ASS 0.41 mg/kg i.v., mean ± SD), the MRT of asiaticoside came out at 8.83 ± 3.31 h and the Vd of asiaticoside was 0.88 ± 0.30 L/kg. Further, in series [3] (ASS 0.41 mg/kg i.v., median (IQR)), the Half-life of asiaticoside is listed as 5.04 (2.32) h.
